## Ab-14 light chain CDR variants: yeast mating affinities

Antigen: PDVDLGDISGINAS, a 14-residue peptide of the SARS-CoV-2 spike HR2 region.

Each scFv is VH, a 15-residue (Gly4Ser)3 linker, VL, as in the parent Ab-14, and differs from it in the CDRs of the light chain only.
VH: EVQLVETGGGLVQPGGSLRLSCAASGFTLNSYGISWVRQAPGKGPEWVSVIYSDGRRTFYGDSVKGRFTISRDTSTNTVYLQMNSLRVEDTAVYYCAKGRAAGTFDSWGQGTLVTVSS
VL: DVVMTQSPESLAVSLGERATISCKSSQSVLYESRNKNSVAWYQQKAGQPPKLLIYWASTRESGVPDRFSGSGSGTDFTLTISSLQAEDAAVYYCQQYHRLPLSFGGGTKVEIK

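The parent was found by panning a naive human phage display library on the peptide. These sequences belong to a second round, designed from the earlier measurements on random variants of the parent. Group labels follow the data file (Ctrl: baseline library sampled from a position-specific scoring matrix, with some repeated check sequences; En: ensemble of fine-tuned language models; GP: Gaussian process model; HC: hill climbing; Gen: genetic algorithm; Gibbs: Gibbs sampling; a sequence that several methods proposed may carry one label only). The scFvs were displayed on barcoded MATa yeast, the peptide on MATalpha yeast. Mating (16 h, 30 °C) was followed by selection of diploids and sequencing of their barcodes. The ratio of observed to expected reads was calibrated, replicate by replicate, on BCL2-family standards whose Kd was known from biolayer interferometry. The assay was run in six technical replicates.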

Each variant is given by its three light chain CDRs, as the data file delimits them; those of the parent are KSSQSVLYESRNKNSVA, WASTRES, QQYHRLPLS. Variants here have more than six changes. Values are apparent Kd, the geometric mean of the replicates that gave a signal; lower means stronger binding. An entry "nd" has no value in the source: the pair was not observed among the diploids in any replicate. This suggests poor binding but is not conclusive. The parent sequence was in this pool as ten entries: three were never detected, three once, and four in most replicates, with averages from 2.2 nM to 240 nM. As a blank, each scFv also met three strains without target: over all light chain designs, 4% of these pairings were detected, typically at 430 nM and seldom below 38 nM. The range of this assay differs from that of the first round, and the authors advise against merging the two. The authors averaged sequences with at least three values out of six and counted those with two or fewer as poor binders.

KIRMSTGYESRNKDSIA, DNSTRGR, QQYHRLPLS [En_HC]: 21 nM (6 of 6 replicates).
KIGATLNTLMHTKNNVA, DLVMREQ, QQYHRLPLS [En_Gen]: 1.0 nM (6 of 6 replicates).
MLMQVGGYESNNKNSIA, DLRTRES, QQYHRLPLS [En_HC]: 29 nM (6 of 6 replicates).
TISQSWLVESRNKNNVA, EMSTREN, QDYDRLPLS [En_HC]: 4.2 nM (6 of 6 replicates).
HLGLVTMLEEAVRNNVA, NNSTREE, QQYDRLPLS [En_Gen]: 1.0 nM (1 of 6 replicates).
HLEQSSLYEQRNKNSVA, NASLRCS, QQYHRLPLS [GP_Gibbs]: 560 pM (6 of 6 replicates).
KLSMVTGHMSLAKNNVA, EMETREK, QQYNRLPLS [En_Gen]: 2.2 nM (6 of 6 replicates).
MVYSAVMMGGSARNSIA, NAQMRPD, QQYHRLPLA [En_Gen]: 15 nM (6 of 6 replicates).
KLSATYRYESQNKNNIA, EMTTRES, QCYHRLPLS [En_HC]: 5.6 nM (6 of 6 replicates).
HISDLIMVASRNKHSVA, DESTRPD, QQYHRLPLS [En_HC]: 670 pM (6 of 6 replicates).
KMEQGGLYESRNKGSVA, GASVRES, QQYHRLPLS [GP_HC]: 1.2 nM (6 of 6 replicates).
KIYQGINTHLGAHSSIA, QEETRLQ, QQYAHLPLS [En_Gen]: 6.3 nM (6 of 6 replicates).
KIGMTLNTLMHQKNNVA, DLVTREN, QQYHRLPLS [En_Gen]: 11 nM (6 of 6 replicates).
KYSQNVLIMGRNKNSVA, EMTTREE, QQYDRLPLS [En_HC]: 5.2 nM (6 of 6 replicates).
KIDPYEAMAGKNKESIA, EYAVTLT, QQYARLPLS [En_Gibbs]: 370 nM (2 of 6 replicates).
KLSSHYFESYGERQAVA, DNEATMN, QQYHYLPLS [En_Gibbs]: 220 nM (4 of 6 replicates).
SVTIYTDENGLKMQSIA, GAGNRML, QQYHRLPLT [En_Gibbs]: 8.6 nM (6 of 6 replicates).
KLSQSQEYLSRNSNAVA, NASQRLQ, QQYHRLPLS [GP_Gibbs]: 3.2 nM (6 of 6 replicates).
MMDNCQEGYYQQNNNVA, EMNARML, QQYGRLPLM [En_Gibbs]: 17 nM (6 of 6 replicates).
KFYWSGLYESRDKRSVA, WDSTRVS, QQYHRLPLS [Ctrl]: nd (0 of 6 replicates).
MLSDLVKMGVRNTNSVA, DNSTRGD, QQYDRLPLS [En_HC]: 11 nM (6 of 6 replicates).
MISDLMLKGSRNKNPIA, NASTREY, QQYHRLPLS [En_HC]: 23 nM (6 of 6 replicates).
KVDISQLLESRNKNSVA, NASTRCS, QQYHRLPLS [GP_Gibbs]: 1.4 nM (6 of 6 replicates).
HMSMVTLSGMRHTNSVA, QMTTRVN, QQYDRLPLM [En_Gen]: 8.2 nM (6 of 6 replicates).
ILSQSVLMGMHLKNSVA, QASTRFA, QQYHRLPLM [En_HC]: 67 nM (6 of 6 replicates).
IVSQVMLWGHLAKNSIA, EAQTRLN, QQYDRLPLF [En_Gen]: 49 nM (2 of 6 replicates).
QLQIEDNGYMGMRNNVA, DGGMVRM, QQYARLPLM [En_Gibbs]: 3.3 nM (6 of 6 replicates).
HITYGMMVAGRHQSSIA, QAEERAK, QQYDRLPLS [En_Gen]: 15 nM (6 of 6 replicates).
MLKMENEEFNQDKHSVA, EAVEKES, QQYHRLPII [En_Gibbs]: 31 nM (6 of 6 replicates).
KLLQSVNYGMRALNSVA, QMETRED, QQYNRLPLS [En_HC]: 49 nM (4 of 6 replicates).
KLTMITGLEKVSKNNVA, EMETRER, QQYARLPLA [En_Gen]: 2.5 nM (6 of 6 replicates).
RIQMGDLEGRTAWNNIA, DGEEIYR, QQYVRLPLY [En_Gibbs]: 3.9 nM (6 of 6 replicates).
NMNVGANFGKEQEQAIA, DVEDREA, QQYQRLPLH [En_Gibbs]: 16 nM (6 of 6 replicates).
KLQFLALQLSRNKNSVA, SASTRES, QQYHRLPLS [GP_Gibbs]: 1.5 nM (6 of 6 replicates).
KLSQSWEYGSRNANSVA, NASQREE, QQYHRLPLS [GP_Gibbs]: 440 pM (6 of 6 replicates).
TIGQSVHETSRMKNSVA, HASTRED, QQYDRLPLS [En_HC]: 40 nM (6 of 6 replicates).
QLYAVQDMTSKNSNNVA, EQSTREN, QQYHRLPLS [En_HC]: 14 nM (6 of 6 replicates).
QMYPFGLAKGEGSNNVA, HVSTRAL, QQYFQLPLV [En_Gibbs]: 1.7 nM (6 of 6 replicates).
MLGDVAMGLTRKEDSVA, DNSTRED, QQYDRLPLS [En_Gen]: 73 nM (2 of 6 replicates).
KLRQVTGYESYTKNSVA, QTSTRAS, QDYHRLPLS [En_HC]: 15 nM (6 of 6 replicates).
QFSNTNMQGHAMEHNVA, EATYAEE, QQYARLPLQ [En_Gibbs]: 4.3 nM (6 of 6 replicates).
KLGEKNRMNGMANKNVA, ADNTRVD, QEYHRLPLI [En_Gibbs]: 4.9 nM (6 of 6 replicates).
KISMLYNYASTNKNNIA, EMTTRES, QHYHRLPLS [En_HC]: 280 nM (5 of 6 replicates).
IVSQLMLWGYKAKNSIA, EAETRGN, QQYDRLPLF [En_Gen]: 180 nM (2 of 6 replicates).
TISGLANYESTNKNSVA, ELTMRGQ, QQYERLPLS [En_HC]: 5.7 nM (6 of 6 replicates).
NLYQSMNFLQRVMNSIA, DASTIPD, QQYHRLPLS [En_HC]: 560 nM (3 of 6 replicates).
KLMQSALLESRNFNNVA, QASQREL, QQYHRLPLS [GP_Gibbs]: 610 pM (6 of 6 replicates).
KIGMTLNQLYEKQNNVA, DLVTRED, QQYHRLPLS [En_Gen]: 630 pM (6 of 6 replicates).
KLDMNELGQSQNSSHVA, GSAQKCQ, QQYSRLPLS [En_Gibbs]: 32 nM (6 of 6 replicates).
RITILSDYYLENRSAIA, ETSLKAH, QQYFMLPLT [En_Gibbs]: 38 nM (6 of 6 replicates).
KLSQSGLYGMRNKMSVA, QASQRES, QQYHRLPLS [GP_Gibbs]: 6.9 nM (6 of 6 replicates).

Top 3 of the variants detected in all replicates, tightest first:

CDR-L1	CDR-L2	CDR-L3	group	Kd	detected
KLSQSWEYGSRNANSVA	NASQREE	QQYHRLPLS	GP_Gibbs	440 pM	6 of 6
HLEQSSLYEQRNKNSVA	NASLRCS	QQYHRLPLS	GP_Gibbs	560 pM	6 of 6
KLMQSALLESRNFNNVA	QASQREL	QQYHRLPLS	GP_Gibbs	610 pM	6 of 6

Source: Li et al. 2023 (doi:10.1038/s41467-023-39022-2), MIT Lincoln Laboratory and A-Alpha Bio; data file from the FLAb repository.